Experimental data as given in patent US7960168B2, “Biologically active substance transfer sheet, cell culture kit constituted of cell culture plate and biologically active substance transfer sheet, producing method thereof and method for screening cell culture conditions utilizing the same” (Canon Kabushiki Kaisha, priority 2003, dated 2011).

Experiments:
Format in all cases: cell-based
[1] = test system: mouse skeletal muscle cell strain C2C12; experiment: C2C12 culture with transfer sheet carrying b-FGF, IGF-I and BMP-2, microscope observation (Example 1); conditions: C2C12, 96 hours culture, area containing BMP-2
Method: The following method was employed for mixing one or more biologically active substances in combination into a cell culture liquid. Basic fibroblast cell growth factor (b-FGF), insulin-like growth factor (IGF-I) and bone morphogenetic protein (BMP-2) were used as the biologically active substance. b-FGF was dissolved in a physiological saline solution, IGF-I in 10 mM acetic acid, and BMP-2 in 4 mM hydrochloric acid to prepare solutions each containing the biologically active substance at a concentration of 20 μg/ml and 5% glycerin. Ink cartridges were washed with 70% ethanol, to which the respective solutions prepared above were filled.
Then, on a base of a polyolefin sheet (NOVIX-II® manufactured by Asahi Techno Glass), sterilized in advance with a sterilizing lamp, the biologically active substances were discharged by using an ink jet printer (Ink jet printer F930, Canon). […]
The cells after the culture were treated with 10% formalin for 15 minutes and then with methanol for 15 minutes, and finally with a 1000-fold dilution of fluorescent dye (TOTO-3 manufactured by Molecular Probe) for 30 minutes for fluorescent staining of DNA. […] Also the cells were subjected to freeze-fracture and the creatinkinase (KP) and alkaliphosphatase (ALP) activities were measured.

[2] = test system: mouse skeletal muscle cell strain C2C12; experiment: C2C12 culture with BMP-2, sustained-release IGF-I and timed FGF-2 addition, ALP staining (Example 3); conditions: without addition of FGF-2; BMP-2 plus sustained release IGF-I, 114 hours
Method: As the biologically active substances, there were employed bone morphogenetic protein (BMP-2), fibroblast cell growth factor (FGF-2), and insulin-like growth factor (IGF-I). The BMP-2 and FGF-2 were respectively prepared into 20 μg/ml solutions containing 5% glycerin. On the other hand, the 20 μg/ml solution of the insulin-like growth factor (IGF-I) contained 5% glycerin and 3% styrene-acrylic resin monoethanolamine salt (average molecular weight 8,000, acid value 250) for controlled release of IGF. Ink cartridges were washed with 70% ethanol, and were filled with the respective solutions of the biologically active substances.
Then, a plurality of transfer sheets each containing a single biologically active substance in four different concentrations were prepared by providing on a base of a polyolefin sheet the respective biologically active substance using an ink jet printer as in Example 1. Each polyolefin sheet was processed in advance to have minute holes at positions corresponding to the wells of a 96 well plate to allow gas exchange. A DMEM culture liquid containing FBS by 2% was put in wells of five 96-well transparent microplates. Then the transfer sheet carrying BMP-2 was placed on each of the 96-well transparent microplates to superimpose on the wells of the microplate. […]

[3] = test system: mouse skeletal muscle cell strain C2C12; experiment: C2C12 culture with sequential transfer sheets A and B, CK and ALP activities (Example 2); conditions: C2C12, areas containing BMP-2 only
Method: As the biologically active substances, fibroblast cell growth factor-2 (FGF-2), insulin-like growth factor-I (IGF-I), bone morphogenetic protein-2 (BMP-2) and transforming growth factor-β (TGF-β) were employed. Solutions of these biologically active substances were prepared and filled in ink cartridges as in Example 1.
Then, two polyolefin sheets (NOVIX-II® manufactured by Asahi Techno Glass) were coated with polyvinyl alcohol (Gosenol GM14L, manufactured by Nippon Gosei Kagaku) by using a bar coater to a dry film thickness of 5 μm, thereby preparing two sheet bases having a holding layer. Then, the sheets were sterilized with a sterilizing lamp and the biologically active substances were discharged onto them using an ink jet printer. Thus two transfer sheets were prepared, a transfer sheet A having FGF-2 and IGF-I in various combinations and concentrations in 12 areas, and a transfer sheet B having BMP-2 and TGF-β in various combinations and concentrations in 12 areas.
A DMEM culture liquid containing 2% FBS was put into wells of two 96-well transparent microplates 1 and 2. After the transfer sheets A and B were attached onto the microplates 1 and 2 respectively as in Example 1, the biologically active substances were dissolved by pushing each area carrying the biologically active substances from the back of the sheet with a rod (FIG. 5). […]

[4] = test system: mouse skeletal muscle cell strain C2C12; experiment: C2C12 culture on plate with immobilized b-FGF and IGF-I and BMP-2 transfer sheet, optical microscope (Example 5); conditions: C2C12, 96 hours, BMP-2 dissolved from transfer sheet
Method: The following method was employed for acting biologically active substances in combination on cells. As the biologically active substances, there were employed basic fibroblast cell growth factor (b-FGF), insulin-like growth factor (IGF-I) and bone morphogenetic protein (BMP-2).
First, bFGF and IGF-I were immobilized onto a polystyrene 96-well cell culture plate in the following manner.
On the cell culture plate coated with poly-L-lysine, a solution (1.5 mg/ml) of active dextran activated with tresyl chloride was added to bind the activated dextran to the plate. Then carbonate buffer solutions containing b-FGF and IGF-I respectively were prepared, applied to the microplate with various amounts. The microplate was left to stand for 12 hours at 4° C. to prepare a cell culture plate including areas where b-FGF and IGF-I were immobilized either singly or in combination with different concentrations, as well as control areas without immobilization.
A polystyrene sheet having projections corresponding the wells of the microplate was provided and sterilized. […]
Then the cells were treated with 10% formalin for 15 minutes and then with methanol for 15 minutes, and reacted with a fluorescent dye for 30 minutes for fluorescent staining of DNA. […] Thus the complex effects of three factors, namely immobilized bFGF, soluble IGF-I and BMP-2, to the cells were analyzed.

BMP-2: bone morphogenetic protein used as biologically active substance
differentiation into bone cells (microscope observation) [1]: accelerated depending on the concentrations | ALP staining (index for bone differentiation by BMP-2) [2]: portions stained with ALP were confirmed | bone differentiation (ALP relative activity) [3]: accelerated | bone differentiation (optical microscope) [4]: bone differentiation
